Laboratory results reported in ChEMBL document CHEMBL1129789, “Dopamine D3 and D4 receptor antagonists: synthesis and structure--activity relationships of (S)-(+)-N-(1-Benzyl-3-pyrrolidinyl)-5-chloro-4- [(cyclopropylcarbonyl) amino]-2-methoxybenzamide (YM-43611) and related compounds” (J Med Chem, 1996).

Amino acid sequences for entries named in this document (tags omitted).
UniProt P19020, whole entry: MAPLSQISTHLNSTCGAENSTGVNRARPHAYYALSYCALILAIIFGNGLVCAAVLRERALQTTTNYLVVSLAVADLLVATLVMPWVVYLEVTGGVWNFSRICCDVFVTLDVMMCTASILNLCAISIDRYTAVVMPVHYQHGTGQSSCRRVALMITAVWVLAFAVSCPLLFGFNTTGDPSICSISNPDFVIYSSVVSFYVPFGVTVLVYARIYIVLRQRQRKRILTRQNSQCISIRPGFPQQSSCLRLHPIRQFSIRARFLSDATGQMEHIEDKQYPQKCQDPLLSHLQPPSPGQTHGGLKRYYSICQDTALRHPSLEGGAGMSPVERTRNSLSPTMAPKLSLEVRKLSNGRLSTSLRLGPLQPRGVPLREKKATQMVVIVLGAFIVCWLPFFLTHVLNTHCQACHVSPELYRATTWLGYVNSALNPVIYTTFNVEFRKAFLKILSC

Target: D(3) dopamine receptor (Rattus norvegicus, UniProt P19020)
Experiment: biochemical

CNc1cc(OC)c(C(=O)N[C@H]2CCN(Cc3ccccc3)[C@H]2C)cc1Cl [NEMONAPRIDE]
Ki: 160 pM
